Measured values reported in article PMC9102781 (Molecules, 2022).

Amino acid sequences for entries named in this document (tags omitted). Residues count along the entry.
UniProt O42275, 24-633: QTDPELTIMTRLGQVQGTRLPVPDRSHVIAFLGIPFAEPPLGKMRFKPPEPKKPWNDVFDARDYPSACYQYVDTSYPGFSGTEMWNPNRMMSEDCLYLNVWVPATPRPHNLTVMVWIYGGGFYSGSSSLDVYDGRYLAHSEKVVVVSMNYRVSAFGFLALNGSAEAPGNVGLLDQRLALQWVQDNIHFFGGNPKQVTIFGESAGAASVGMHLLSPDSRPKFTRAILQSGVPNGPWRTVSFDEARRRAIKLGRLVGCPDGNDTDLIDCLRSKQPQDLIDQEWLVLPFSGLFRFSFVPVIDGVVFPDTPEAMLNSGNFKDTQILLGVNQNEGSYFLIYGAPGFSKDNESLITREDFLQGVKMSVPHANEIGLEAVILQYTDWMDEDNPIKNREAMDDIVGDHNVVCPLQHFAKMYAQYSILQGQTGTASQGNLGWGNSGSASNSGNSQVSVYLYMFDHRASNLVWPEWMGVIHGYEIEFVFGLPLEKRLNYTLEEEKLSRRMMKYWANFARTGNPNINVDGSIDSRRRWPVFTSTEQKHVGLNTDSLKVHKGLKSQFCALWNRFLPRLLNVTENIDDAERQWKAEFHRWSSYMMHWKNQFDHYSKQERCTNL

Biological target: T1, Acetylcholinesterase (AChE) (Electrophorus electricus, UniProt O42275)
T1 construct: purchased Sigma Aldrich type VI-S
Assay: In vitro anti-acetylcholinesterase assay (Ellman's method)
Format: biochemical
From the text: In vitro enzyme assay reagents were purchased as previously described. Acetylcholinesterase (AChE) from Electrophorus electricus type VI-S lyophilized powder (137 units/mg) was acquired from Sigma Aldrich (St. Louis, MO, USA). Substrate acetylthiocholine iodide (ATCl) and sodium phosphate monobasic and dibasic anhydrous used for buffer preparation were obtained from Wako Pure Chemical (Osaka, Japan). Coloring reagent 5,5′-dithio-bis-(2-nitrobenzoic acid) (DTNB) was acquired from Nacalai Tesque (Kyoto, Japan). Positive control physostigmine was obtained from TCI Tokyo Chemical Industry (Tokyo, Japan). All other reagents acquired from commercial sources were of analytical grade.
The plant fractions and isolated compounds were evaluated for their anti-AChE potential in triplicate based on the Ellman’s method described previously. Physostigmine was used as a positive control.

CNC(=O)Oc1ccc2c(c1)[C@]1(C)CCN(C)[C@@H]1N2C [Physostigmine, reference compound] gave an IC50 of 100 nM.
